Consider one substance from patent publication US9624269B2, “Peptide inhibitors of BACE1” (GENENTECH, INC., priority 2011, dated 2017).

The chains behind the UniProt entries cited, without tags or fusion partners. Residues count along the entry.
UniProt P56817, 22-457: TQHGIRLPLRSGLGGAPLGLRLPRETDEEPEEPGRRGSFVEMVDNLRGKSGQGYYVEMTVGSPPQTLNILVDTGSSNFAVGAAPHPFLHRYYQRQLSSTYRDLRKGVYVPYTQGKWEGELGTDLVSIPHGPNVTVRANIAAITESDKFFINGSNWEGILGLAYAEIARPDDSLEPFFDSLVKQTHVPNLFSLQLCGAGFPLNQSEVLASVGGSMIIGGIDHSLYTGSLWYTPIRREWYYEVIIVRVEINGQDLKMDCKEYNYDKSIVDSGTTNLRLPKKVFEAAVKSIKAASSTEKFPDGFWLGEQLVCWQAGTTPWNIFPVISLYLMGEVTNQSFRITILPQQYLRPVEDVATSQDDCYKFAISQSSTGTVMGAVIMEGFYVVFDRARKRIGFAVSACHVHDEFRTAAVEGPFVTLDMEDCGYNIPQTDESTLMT

The target in this assay is BACE1 (Homo sapiens, UniProt P56817). In words: Biotinylated BACE020 competition binding ELISA. Particulars: concentration dependent addition of competitor. Also on record: extracellular domain (ECD) (residues 22-457) and a C-terminal His8 tag; made in house; host or cells: Chinese hamster ovary cells (transient). How it is done:
Competition binding ELISA experiments were carried out using biotinylated BACE020 and a concentration dependent addition of BACE020, 0M99-2 or BMS1 peptides.
Binding of biotinylated BACE020 to recombinant protein was determined by a 96-well plate assay. Maxisorp microtiter plates (Nalge Nunc International, Rochester, N.Y.) were coated overnight at 4° C. with 2 μg/ml BACE 1 mutant in 50 mM carbonate, pH 9.6. The coated wells were washed with buffer (PBS, 0.05% Polysorbate 20) and blocked with assay buffer (PBS, pH 7.4, 0.5% BSA, 0.05% Tween 20, 15 ppm Proclin) for 1 h at room temperature with gentle shaking. […] After washing, the amount of peptide bound to the plate was detected by the addition of Streptavidin-Horseradish Peroxidase Conjugate (GE Healthcare, Piscataway, N.J.) followed by the addition of TMB/H2O2 substrate (KPL, Gaithersburg, Md.). The reaction was quenched with 1 M phosphoric acid and the A450 measured on a Molecular Devices SpectraMax Plus384 microplate reader. Concentrations to give half maximal effective concentration (EC50) were determined using a 4-parameter non-linear regression curve-fitting program with Kaleidagraph (Synergy Software, Reading, Pa.). […] Concentrations to give half maximal inhibition concentration (IC50) were determined using a 4-parameter non-linear regression curve-fitting program with Kaleidagraph.
A general note: ELISA stands for enzyme-linked immunosorbent assay.

Regarding OM99-2 [reference compound], the “Competition for binding of biotinylated BACE020 to BACE1” value is “did compete”.
